The values that follow come from patent US11406640B2, “JAK1 pathway inhibitors for the treatment of chronic lung allograft dysfunction” (Incyte Corporation, priority 2019, dated 2022).

The target of the experiment is human JAK1 (Homo sapiens, UniProt P23458). The experiment in a line: In vitro JAK kinase assay (Example A), JAK1. The class given is biochemical. The following applies: 1 mM ATP. The text has this: In some embodiments, the JAK1 pathway inhibitor is a compound of Table 2, or a pharmaceutically acceptable salt thereof.

Structures are written as SMILES.

For `CN(C)Cc1cc(F)cc(OC2CCN(CC(CC#N)n3cc(-c4ncnc5[nH]ccc45)cn3)CC2)c1` (single isomer, unassigned) [Compound 14, 4-(4-{3-[(dimethylamino)methyl]-5-fluorophenoxy}piperidin-1-yl)-3-[4-(7H-pyrrolo[2,3-d]pyrimidin-4-yl)-1H-pyrazol-1-yl]butanenitrile], the half-maximal inhibitory concentration (IC50) is less than 10 nM.
